Literature values as cited in US20250160636A1, “Mitigating Ocular Toxicity” (GlaxoSmithKline Intellectual Property Development Limited, priority 2022, published 2025).

Details: at the recommended dosages

belantamab mafodotin [BLENREP®]
Side effect indicated by current U.S. Prescribing Information: ocular toxicity is a known side effect
